Assay results reported in patent publication US8653263B2 (Janssen Pharmaceutica, priority 2009, dated 2014).

Amino acid sequences for entries named in this document (tags omitted).
UniProt O43614, whole entry: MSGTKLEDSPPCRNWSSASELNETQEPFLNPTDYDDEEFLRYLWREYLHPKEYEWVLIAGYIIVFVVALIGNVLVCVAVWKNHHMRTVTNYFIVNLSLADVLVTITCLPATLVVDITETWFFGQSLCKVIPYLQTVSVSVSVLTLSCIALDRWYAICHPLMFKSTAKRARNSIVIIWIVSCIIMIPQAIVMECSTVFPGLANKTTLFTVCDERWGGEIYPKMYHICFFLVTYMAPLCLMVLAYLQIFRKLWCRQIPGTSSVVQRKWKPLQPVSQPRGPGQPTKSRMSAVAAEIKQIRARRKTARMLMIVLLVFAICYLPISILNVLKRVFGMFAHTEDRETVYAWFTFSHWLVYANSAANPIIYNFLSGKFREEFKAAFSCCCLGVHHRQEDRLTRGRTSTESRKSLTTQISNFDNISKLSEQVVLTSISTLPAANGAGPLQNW

Molecular target: human orexin-2 receptor (Homo sapiens (Human), UniProt O43614)
Assay: Human orexin 2 receptor radioligand binding ([3H]-EMPA competition)
Conditions: not given

Row | Ki | SMILES
1 | 13 nM | Cc1cc(C)nc(N2CC3CN(C(=O)c4cccc(F)c4-c4nc(C)no4)CC3C2)n1 (stereo not shown) [Example 314, 2-(4,6-Dimethylpyrimidin-2-yl)-5-{[3-fluoro-2-(3-methyl-1,2,4-oxadiazol-5-yl)phenyl]carbonyl}octahydropyrrolo[3,4-c]pyrrole]
2 | 13 nM | [2H]c1c(C([2H])([2H])[2H])nc(N2CC3CN(C(=O)c4cccc(F)c4-c4nc(C)no4)CC3C2)nc1C([2H])([2H])[2H] (stereo not shown) [Example 383, 2-{4,6-Bis[(^2H3)methyl](^2H)pyrimidin-2-yl}-5-{[3-fluoro-2-(3-methyl-1,2,4-oxadiazol-5-yl)phenyl]carbonyl}octahydropyrrolo[3,4-c]pyrrole]

Same assay, conditions: read-out: OR 2 Ki

Row | SMILES | Ki
3 | Cc1cc(C)nc(N2CC3CN(C(=O)c4ccc(F)cc4-n4nccn4)CC3C2)n1 (stereo not shown) [Example 118, 2-(4,6-Dimethylpyrimidin-2-yl)-5-{[4-fluoro-2-(2H-1,2,3-triazol-2-yl)phenyl]carbonyl}octahydropyrrolo[3,4-c]pyrrole] | 19 nM

Same assay, conditions: read-out: OR 2 Ki; HEK293 cells stably expressing human orexin-2 receptor; [3H]-EMPA 5 nM final; apparent Ki=IC50/(1+C/Kd), Kd=2 nM

Row | Ki | SMILES
4 | 20 nM | Cc1cc(C)nc(N2CC3CN(C(=O)c4cc(I)ccc4-n4nccn4)CC3C2)n1 (stereo not shown) [Example 105, 2-(4,6-Dimethylpyrimidin-2-yl)-5-{[5-iodo-2-(2H-1,2,3-triazol-2-yl)phenyl]carbonyl}octahydropyrrolo[3,4-c]pyrrole]
5 | 8 nM | Cc1cc(C)nc(N2CC3CN(C(=O)c4c(C)cccc4-n4nccn4)CC3C2)n1 (stereo not shown) [Example 259, (5-(4,6-Dimethylpyrimidin-2-yl)hexahydropyrrolo[3,4-c]pyrrol-2(1H)-yl)(2-methyl-6-(2H-1,2,3-triazol-2-yl)phenyl)methanone]
6 | 81 nM | Cc1cc(C)nc(N2CC3CN(C(=O)c4ccc5ccccc5c4-n4nccn4)CC3C2)n1 (stereo not shown) [Example 331, [5-(4,6-Dimethyl-pyrimidin-2-yl)-hexahydro-pyrrolo[3,4-c]pyrrol-2-yl]-(1-[1,2,3]triazol-2-yl-naphthalen-2-yl)-methanone]
7 | 17 nM | Cc1cc(C2CC2)nc(N2CC3CN(C(=O)c4c(F)cccc4-n4nccn4)CC3C2)n1 (stereo not shown) [Example 302, 2-(4-Cyclopropyl-6-methylpyrimidin-2-yl)-5-{[2-fluoro-6-(2H-1,2,3-triazol-2-yl)phenyl]carbonyl}octahydropyrrolo[3,4-c]pyrrole]
8 | 4 nM | Cc1nc(N2CC3CN(C(=O)c4c(F)cccc4-n4nccn4)CC3C2)nc(C)c1C (stereo not shown) [Example 294, 2-{[2-Fluoro-6-(2H-1,2,3-triazol-2-yl)phenyl]carbonyl}-5-(4,5,6-trimethylpyrimidin-2-yl)octahydropyrrolo[3,4-c]pyrrole]
9 | 25 nM | Cc1nc(N2CC3CN(C(=O)c4cccnc4-c4ccn[nH]4)CC3C2)nc(C)c1C (stereo not shown) [Example 251, (2-(1H-Pyrazol-5-yl)pyridin-3-yl)(5-(4,5,6-trimethylpyrimidin-2-yl)hexahydropyrrolo[3,4-c]pyrrol-2(1H)-yl)methanone]
10 | 6 nM | CCc1cc(C)nc(N2CC3CN(C(=O)c4c(F)cccc4-n4nccn4)CC3C2)n1 (stereo not shown) [Example 297, 2-(4-Ethyl-6-methylpyrimidin-2-yl)-5-{[2-fluoro-6-(2H-1,2,3-triazol-2-yl)phenyl]carbonyl}octahydropyrrolo[3,4-c]pyrrole]
11 | 10 nM | Cc1nc(N2CC3CN(C(=O)c4c(F)cccc4-n4nccn4)CC3C2)ncc1Cl (stereo not shown) [Example 316, 2-(5-Chloro-4-methylpyrimidin-2-yl)-5-{[2-fluoro-6-(2H-1,2,3-triazol-2-yl)phenyl]carbonyl}octahydropyrrolo[3,4-c]pyrrole]
12 | 19 nM | Cc1nc(N2CC3CN(C(=O)c4c(F)cccc4-n4nccn4)CC3C2)ncc1F (stereo not shown) [Example 293, 2-(5-Fluoro-4-methylpyrimidin-2-yl)-5-{[2-fluoro-6-(2H-1,2,3-triazol-2-yl)phenyl]carbonyl}octahydropyrrolo[3,4-c]pyrrole]
13 | 9 nM | COc1cc(C)nc(N2CC3CN(C(=O)c4c(F)cccc4-n4nccn4)CC3C2)n1 (stereo not shown) [Example 296, 2-{[2-Fluoro-6-(2H-1,2,3-triazol-2-yl)phenyl]carbonyl}-5-(4-methoxy-6-methylpyrimidin-2-yl)octahydropyrrolo[3,4-c]pyrrole]
14 | 90 nM | Cc1cc(C)nc(N2CC3CN(C(=O)c4cccc(C)c4-n4nccn4)CC3C2)n1 (stereo not shown) [Example 260, (5-(4,6-Dimethylpyrimidin-2-yl)hexahydropyrrolo[3,4-c]pyrrol-2(1H)-yl)(3-methyl-2-(2H-1,2,3-triazol-2-yl)phenyl)methanone]
15 | 41 nM | O=C(c1c(F)cccc1-n1nccn1)N1CC2CN(c3nc(C(F)(F)F)cc(C(F)(F)F)n3)CC2C1 (stereo not shown) [Example 280, 2-[4,6-Bis(trifluoromethyl)pyrimidin-2-yl]-5-{[2-fluoro-6-(2H-1,2,3-triazol-2-yl)phenyl]carbonyl}octahydropyrrolo[3,4-c]pyrrole]
16 | 46 nM | COc1cc(OC)nc(N2CC3CN(C(=O)c4c(F)cccc4-n4nccn4)CC3C2)n1 (stereo not shown) [Example 258, (5-(4,6-Dimethoxypyrimidin-2-yl)hexahydropyrrolo[3,4-c]pyrrol-2(1H)-yl)(2-fluoro-6-(2H-1,2,3-triazol-2-yl)phenyl)methanone]
17 | 36 nM | Cc1cc(C(C)(C)C)nc(N2CC3CN(C(=O)c4c(F)cccc4-n4nccn4)CC3C2)n1 (stereo not shown) [Example 301, 2-(4-tert-Butyl-6-methylpyrimidin-2-yl)-5-{[2-fluoro-6-(2H-1,2,3-triazol-2-yl)phenyl]carbonyl}octahydropyrrolo[3,4-c]pyrrole]
18 | 24 nM | Cc1cnc(N2CC3CN(C(=O)c4c(F)cccc4-n4nccn4)CC3C2)nc1C (stereo not shown) [Example 295, 2-(4,5-Dimethylpyrimidin-2-yl)-5-{[2-fluoro-6-(2H-1,2,3-triazol-2-yl)phenyl]carbonyl}octahydropyrrolo[3,4-c]pyrrole]

Row | SMILES | Ki
19 | Cc1cc(C)nc(N2CC3CN(C(=O)c4ccc(C)nc4-n4nccn4)CC3C2)n1 (stereo not shown) [Example 275, [5-(4,6-Dimethyl-pyrimidin-2-yl)-hexahydro-pyrrolo[3,4-c]pyrrol-2-yl]-(6-methyl-2-[1,2,3]triazol-2-yl-pyridin-3-yl)-methanone] | 487 nM
20 | Cc1cc(O)nc(N2CC3CN(C(=O)c4c(F)cccc4-n4nccn4)CC3C2)n1 (stereo not shown) [Example 281, 2-[5-{[2-Fluoro-6-(2H-1,2,3-triazol-2-yl)phenyl]carbonyl}hexahydropyrrolo[3,4-c]pyrrol-2(1H)-yl]-6-methylpyrimidin-4-ol] | 9000 nM
21 | O=C(c1c(F)cccc1-n1nccn1)N1CC2CN(c3ncc([N+](=O)[O-])cn3)CC2C1 (stereo not shown) [Example 261, (2-Fluoro-6-(2H-1,2,3-triazol-2-yl)phenyl)(5-(5-nitropyrimidin-2-yl)hexahydropyrrolo[3,4-c]pyrrol-2(1H)-yl)methanone] | 477 nM
22 | COc1cc(C(=O)N2CC3CN(c4nc(C)cc(C)n4)CC3C2)c(-n2nccn2)cc1OC (stereo not shown) [Example 342, (4,5-Dimethoxy-2-[1,2,3]triazol-2-yl-phenyl)-[5-(4,6-dimethyl-pyrimidin-2-yl)-hexahydro-pyrrolo[3,4-c]pyrrol-2-yl]-methanone] | 9490 nM
23 | COc1cccc(C(=O)N2CC3CN(c4nc(C)cc(C)n4)CC3C2)c1-n1nccn1 (stereo not shown) [Example 285, 2-(4,6-Dimethylpyrimidin-2-yl)-5-{[3-methoxy-2-(2H-1,2,3-triazol-2-yl)phenyl]carbonyl}octahydropyrrolo[3,4-c]pyrrole] | 1500 nM
24 | Cc1cc(C)nc(N2CC3CN(C(=O)c4cccnc4-n4nccn4)CC3C2)n1 (stereo not shown) [Example 238, (2-(2H-1,2,3-Triazol-2-yl)pyridin-3-yl)(5-(4,6-dimethylpyrimidin-2-yl)hexahydropyrrolo[3,4-c]pyrrol-2(1H)-yl)methanone] | 243 nM
25 | Cc1cc(C)nc(N2CC3CN(C(=O)c4ncccc4-n4nccn4)CC3C2)n1 (stereo not shown) [Example 332, [5-(4,6-Dimethyl-pyrimidin-2-yl)-hexahydro-pyrrolo[3,4-c]pyrrol-2-yl]-(3-[1,2,3]triazol-2-yl-pyridin-2-yl)-methanone] | 114 nM
